In experiment [1] the test system is IL-17 production, human PBMC cells. Briefly: IL-17 production assay using human PBMC. Particulars: read-out: IL-17 production (IC50 μM); human PBMC stimulated by cytostim for 3 days, IL-17 ELISA of supernatant. The source says:
Test Example 2. IL-17 Production Assay Using Human PBMC
• 1. Human PBMC cells (Cat No. 70025.1, Zenbio) • 2. Lymphocyte medium (Cat No. LYMPH-1, Zenbio) • 3. TexMACS (Cat No. 130-097-196, Miltenyi) • 4. Cytostim-human (Cat No. 1130-092-173, Miltenyi) • 5. Human IL-17 ELISA (Cat No. D1700, R&D systems) • 6. Tecan Infinite M1000 plate reader (Tecan)
Experimental Procedure for IL-17 Production Assay
Cryopreserved peripheral blood human mononuclear cells (PBMCs) were rapidly thawed in warmed Lymphocyte media, and centrifuged cell suspension at 1000 rpm for 10 minutes. The supernatant was removed, and the cell pellets were gently resuspended in TexMACS media.
Human PBMC cells in TexMACS media were plated at 1×10^5 each well in triplicate. The test compounds at various concentrations or vehicle control (<0.5% DMSO) were added into cell culture. The cells were stimulated by cytostim (10 μL/mL) for 3 days in a humidified, 5% CO2 incubator at 37° C.
After incubation, the cell culture supernatant was harvested, and then removed particulates by centrifugation. Human IL-17 in the supernatant was measured using human IL-17 ELISA kit according to the manufacturer's protocol. IC50 values were determined using GraphPad Prism by plotting the compounds concentration versus percent inhibition.
(ELISA stands for enzyme-linked immunosorbent assay.)

The chains behind the UniProt entries cited, without tags or fusion partners. Residues count along the entry.
UniProt P51449, 269-508 limits assumed: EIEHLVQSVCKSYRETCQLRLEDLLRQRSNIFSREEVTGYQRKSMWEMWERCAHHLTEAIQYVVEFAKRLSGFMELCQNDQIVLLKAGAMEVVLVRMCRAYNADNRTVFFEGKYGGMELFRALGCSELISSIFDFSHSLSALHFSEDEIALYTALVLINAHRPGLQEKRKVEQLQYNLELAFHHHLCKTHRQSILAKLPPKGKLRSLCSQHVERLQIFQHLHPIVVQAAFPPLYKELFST

For a further experiment, the target named is RORγ LBD-GST tagged (Homo sapiens, UniProt P51449). Briefly: LanthaScreen TR-FRET RORγ coactivator assay. Particulars: read-out: RORγ Coactivator Assay (IC50 μM), Fluorescein-D22 coactivator peptide, 1 hour room temperature. The class given is biochemical. A general note: TR-FRET usually uses a lanthanide donor and a delayed reading to cut background.

Our source for the IC50 values is patent US12187684B2, “Benzimidazole derivatives as modulators of retinoid-related orphan receptor gamma (RORγ) and pharmaceutical use thereof” (Jiangsu Hengrui Medicine Co., Ltd., priority 2018, dated 2025).

Broadly, the IC50 is the point on the concentration scale where inhibition reaches its midpoint. Consider `CCS(=O)(=O)c1ccc(C(CO)c2nc3cc(Cl)c(N4CCC(F)(F)CC4)c(Cl)c3[nH]2)cc1` (single isomer, unassigned) [the longer retention time of 126-1 and 126-2], for which the values for the IC50 (in experiment [1]; at RORγ LBD-GST tagged) were 0.031 µM and 0.036 µM, respectively.
For `CC(C)Oc1ccccc1-c1cc2nc(C(CO)c3ccc(S(=O)(=O)CC4CC4)cc3)[nH]c2cc1Cl` (single isomer, unassigned) [the shorter retention time of 124-1 and 124-2], the IC50 worked out at 0.024 µM in experiment [1] and 0.07 µM on RORγ LBD-GST tagged.
For `CCS(=O)(=O)c1ccc(C(CO)c2nc3cc(Cl)c(N4CCC(F)(F)CC4)c(Cl)c3[nH]2)cc1` (single isomer, unassigned) [the shorter retention time of 126-1 and 126-2], the figures for the IC50 (in experiment [1]; on RORγ LBD-GST tagged) were 0.045 µM and 0.014 µM, respectively.
Regarding `CC(C)Oc1ccccc1-c1cc2nc(C(CO)c3ccc(S(=O)(=O)CC4CC4)cc3)[nH]c2cc1Cl` (single isomer, unassigned) [the longer retention time of 124-1 and 124-2], the IC50 in experiment [1] was 0.041 µM; at RORγ LBD-GST tagged, 0.026 µM.
